Chains of the proteins cited; added tags and fusions are not shown.
UniProt P27338, whole entry: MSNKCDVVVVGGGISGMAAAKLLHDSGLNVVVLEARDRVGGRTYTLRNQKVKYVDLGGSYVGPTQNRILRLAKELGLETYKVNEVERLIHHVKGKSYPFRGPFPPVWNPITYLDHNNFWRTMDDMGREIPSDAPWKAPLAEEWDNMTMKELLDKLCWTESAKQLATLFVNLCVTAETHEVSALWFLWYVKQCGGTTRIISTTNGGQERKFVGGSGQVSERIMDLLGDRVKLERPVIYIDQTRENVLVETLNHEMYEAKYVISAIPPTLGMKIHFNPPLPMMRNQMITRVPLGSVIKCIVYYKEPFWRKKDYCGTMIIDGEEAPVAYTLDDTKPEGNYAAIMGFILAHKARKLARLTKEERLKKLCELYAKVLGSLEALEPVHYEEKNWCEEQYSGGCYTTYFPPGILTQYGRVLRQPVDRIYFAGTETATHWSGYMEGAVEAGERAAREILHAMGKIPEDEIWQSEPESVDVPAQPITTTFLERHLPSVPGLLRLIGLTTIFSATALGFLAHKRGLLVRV
UniProt P21397, whole entry: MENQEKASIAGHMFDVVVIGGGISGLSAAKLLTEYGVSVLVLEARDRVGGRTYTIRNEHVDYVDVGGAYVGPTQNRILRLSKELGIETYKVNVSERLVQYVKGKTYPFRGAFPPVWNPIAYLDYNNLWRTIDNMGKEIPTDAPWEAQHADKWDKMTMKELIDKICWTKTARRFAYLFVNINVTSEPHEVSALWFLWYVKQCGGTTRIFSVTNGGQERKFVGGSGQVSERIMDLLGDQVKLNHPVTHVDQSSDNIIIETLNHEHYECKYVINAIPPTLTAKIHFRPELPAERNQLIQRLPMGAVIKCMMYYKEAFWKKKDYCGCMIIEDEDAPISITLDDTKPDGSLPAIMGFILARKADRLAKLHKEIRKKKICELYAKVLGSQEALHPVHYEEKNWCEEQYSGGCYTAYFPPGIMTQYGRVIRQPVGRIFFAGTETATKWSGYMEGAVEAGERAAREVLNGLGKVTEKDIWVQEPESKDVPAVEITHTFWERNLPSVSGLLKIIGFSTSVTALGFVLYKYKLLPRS

According to US10780081B2, “Method of treating multiple sclerosis employing a LSD1-inhibitor” (ORYZON GENOMICS, S.A., priority 2016, dated 2020):

Legend:
Human recombinant MAO-B = molecular target: T1, Human recombinant MAO-B (Homo sapiens, UniProt P27338); experiment: MAO-B kynuramine fluorescence assay; type: biochemical
T1 construct: purchased Sigma Aldrich
Text: (§1) Human recombinant monoamine oxidase proteins MAO-A and MAO-B were purchased from Sigma Aldrich. MAOs catalyze the oxidative deamination of primary, secondary and tertiary amines. In order to monitor MAO enzymatic activities and/or their inhibition rate by inhibitor(s) of interest, a fluorescence-based (inhibitor)-screening assay was set up. 3-(2-Aminophenyl)-3-oxopropanamine (kynuramine dihydrobromide, Sigma Aldrich), a non fluorescent compound was chosen as a substrate. Kynuramine is a non-specific substrate for both MAO-A and MAO-B activities. While undergoing oxidative deamination by MAO activities, kynuramine is converted into 4-hydroxyquinoline (4-HQ), a resulting fluorescent product.
The monoamine oxidase activity was estimated by measuring the conversion of kynuramine into 4-hydroxyquinoline. […]
(§2) After leaving the enzyme(s) interacting with the inhibitor, KM of kynuramine was added to each reaction for MAO-B and MAO-A assay respectively, and the reaction was left for 1 hour at 37° C. in the dark. […] The conversion of kynuramine to 4-hydroxyquinoline, was monitored by fluorescence (excitation at 320 nm, emission at 360 nm) using a microplate reader (Infinite 200, Tecan). Arbitrary units were used to measure levels of fluorescence produced in the absence and/or in the presence of inhibitor.
The IC50 values of each inhibitor were calculated with GraphPad Prism Software.

Human recombinant MAO-A = molecular target: T2, Human recombinant MAO-A (Homo sapiens, UniProt P21397); experiment: MAO-A kynuramine fluorescence assay; type: biochemical
T2 construct: purchased Sigma Aldrich
Text: LSD1 has a fair degree of structural similarity and amino acid identity/homology with the flavin-dependent amine oxidases monoamine oxidase A (MAO-A) and B (MAO-B). To determine the level of selectivity of a LSD1 inhibitor versus MAO-A and MAO-B, the inhibitory activity of a compound of interest against MAO-A and MAO-B can be tested using the method described below:
as §1, with “Kynuramine is a non-specific substrate for both MAO-A and MAO-B activities. While undergoing oxidative deamination by MAO activities, kynuramine is converted into 4-hydroxyquinoline (4-HQ), a resulting fluorescent product.” left out
as §2, with “inhibitor. […]” for “inhibitor.”

IC50 (Human recombinant MAO-B): > 100 µM
IC50 (Human recombinant MAO-A): > 100 µM
Structure (SMILES): Fc1ccccc1[C@@H]1C[C@H]1NC1CCNCC1 [ORY-LSD1, N-((1R,2S)-2-(2-fluorophenyl)cyclopropyl)piperidin-4-amine, reference compound]
